Test results published in EP1021444B1, “3-CARBOXAMIDE DERIVATIVES OF 5H-PYRROLO[2,1-c][1,4]-BENZODIAZEPINES” (Wyeth, priority 1996, dated 1998).

Protein sequences, listed by entry. Tags and fused reporters are not part of them.
UniProt P30518, whole entry: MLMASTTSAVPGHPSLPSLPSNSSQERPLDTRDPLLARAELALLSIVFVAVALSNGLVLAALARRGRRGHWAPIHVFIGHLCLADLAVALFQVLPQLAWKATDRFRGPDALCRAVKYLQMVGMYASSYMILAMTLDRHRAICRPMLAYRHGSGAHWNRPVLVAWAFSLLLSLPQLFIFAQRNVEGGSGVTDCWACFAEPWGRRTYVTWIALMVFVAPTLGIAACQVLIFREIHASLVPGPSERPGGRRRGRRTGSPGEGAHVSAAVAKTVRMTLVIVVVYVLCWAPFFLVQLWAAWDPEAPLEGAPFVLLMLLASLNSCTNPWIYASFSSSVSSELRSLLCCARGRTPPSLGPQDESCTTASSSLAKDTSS

Target: T1, Human V2 Vasopressin Receptor (Homo sapiens, UniProt P30518)
T1 construct: expressed in transfected cells; host or cells: mouse fibroblast cell line LV-2 (membrane preparation)
Test: Binding to membranes of mouse fibroblast cell line (LV-2) transfected with the cDNA expressing the human V2 vasopressin receptor
Experimental: Binding to Membranes of Mouse Fibroblast Cell Line (LV-2) Transfected with the cDNA Expressing the Human V2 Vasopressin Receptor
Flasks of 175 ml capacity, containing attached cells grown to confluence, are cleared of culture medium by aspiration. The flasks containing the attached cells are rinsed with 2x5 ml of phosphate buffered saline (PBS) and the liquid aspirated off each time. Finally, 5 ml of an enzyme free dissociation Hank's based solution (Specialty Media, Inc., Lafayette, NJ) is added and the flasks are left undisturbed for 2 min. The content of all flasks is poured into a centrifuge tube and the cells pelleted at 300 x g for 15 min. […] The protein content is determined by the Lowry method and the receptor membranes are suspended in 50.0 mM Tris.HCl buffer containing 0.1 mM phenylmethylsulfonylfluoride (PMSF) and 0.2% bovine serum albumin (BSA) to give 2.5 mg receptor protein per ml of suspension.
For binding experiments, the following is added in ml volume to wells of a 96 well format of a microtiter plate: 100.0 ml of 100.0 mM Tris.HCl buffer containing 0.2% heat inactivated BSA, 10.0 mM MgCl2 and a mixture of protease inhibitors: leupeptin, 1.0 mg %; aprotinin, 1.0 mg %; 1,10-phenanthroline, 2.0 mg %; trypsin inhibitor, 10.0 mg % and 0.1 mM PMSF, 20.0 ml of [^3H] […] Non specific binding is assessed in the presence of 1.0 mM of unlabeled ligand, added in 20 ml volume. […]

O=C(Nc1ccc(C(=O)N2Cc3ccc(C(=O)O)n3Cc3ccccc32)c(Cl)c1)c1ccccc1-c1ccccc1 [Example 7, 10-{4-[(Bipheny-2-carbonyl)-amino]-2-chloro-benzoyl)-10,11-dihydro-5H-benzo[e]pyrrolo[1,2-a][1,4] diazepine-3-carboxylic acid]
IC50: 4.3 nM

CN1CCN(C(=O)c2ccc3n2Cc2ccccc2N(C(=O)c2ccc(NC(=O)c4ccccc4-c4ccccc4)cc2Cl)C3)CC1 [Example 9]
IC50: 3.3 nM
